Results from patent US6358694B1, “Methods of identifying modulators of a prostaglandin receptor” (Merck Frosst Canada & Co., priority 1993, dated 2002).

Amino acid sequences for entries named in this document (tags omitted). A change or cut given only in a name is not applied to a line headed by its entry.
UniProt P43088: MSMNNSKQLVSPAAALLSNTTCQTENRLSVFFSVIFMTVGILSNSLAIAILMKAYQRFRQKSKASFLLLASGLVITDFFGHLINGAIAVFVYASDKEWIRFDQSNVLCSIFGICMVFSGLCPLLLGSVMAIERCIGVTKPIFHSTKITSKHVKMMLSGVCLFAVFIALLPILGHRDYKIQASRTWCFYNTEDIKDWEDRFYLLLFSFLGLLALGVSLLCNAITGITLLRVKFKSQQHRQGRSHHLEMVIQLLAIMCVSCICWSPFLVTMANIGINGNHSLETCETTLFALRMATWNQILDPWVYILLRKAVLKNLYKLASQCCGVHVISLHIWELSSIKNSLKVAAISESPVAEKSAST

Key:
FP receptor [1] = molecular target: T1, FP receptor (Homo sapiens, UniProt P43088); assay: electrophysiological assay (Ca2+-dependent Cl- current) in pcDNAIamp-FP-injected Xenopus oocytes; type: cell-based; conditions: perfusion of 10 to 20 nM, oocyte voltage clamped at -60 mV
T1 construct: A long open reading frame (1077 bp) was determined which would result in a 359 amino acid polypeptide; expressed in transfected cells; host or cells: Xenopus laevis oocytes (stage 5-6), nuclear injection of 1-5 ng pcDNAIamp-FP plasmid
Experimental: (§1) Ooctyes were taken from adult females of Xenopus laevis using standard surgical procedure (Colman, A., 1984 In: Transcription and Translation—A Practical Approach, IRL Press). To remove follicle cells, oocytes were treated for 2-3 h with freshly made collagenase (2 mg/ml, type 2, Worthington Biochemical Corp., Freehold, N.J.) in Ca^2+-free ND96 solution (ND96 in mM: NaCl 96, KCl 2, MgCl2 1, HEPES 5, Na-pyruvate 2.5, theophylline 0.5, gentamicin […], +1.8 CaCl2, pH 7.6). Defolliculated stage 5-6 oocytes were selected and maintained in ND96 solution. Ooctye nuclei were injected with 1-5 ng of pcDNAIamp-PP and then incubated at 18° C. for 48 h before challenge with agonist. Functional activity was determined by measurement of either agonist-induced Ca^2+-dependent Cl^− current or light emission in oocytes injected with the Ca^2+-specific photoprotein aequorin (J. Blinks, Friday Harbor Photoproteins, Wash.), (Giladi and Spindel 1991 Biotechniques, 10, pp 744-747). […] Ligand-containing solution was perfused and the current response was recorded. For the luminometric assay, aequorin-loaded oocytes (100 ng/oocyte) were placed individually in cuvettes containing 0.4 ml ND96 and the light emission provoked by ligand addition was recorded using a Bio-Orbit 1251 luminometer (Fisher Sci. Ltd.).

FP receptor [2] = molecular target: T1, FP receptor; assay: aequorin luminescence assay in pcDNAIamp-FP-injected Xenopus oocytes; type: cell-based; conditions: aequorin-loaded oocytes, compared to PGE2
Experimental: as §1

For prostaglandin F2α [PGF2α], the “agonist-induced Ca2+-dependent Cl- current response” value (FP receptor [1]) was “prominent current responses” and the “agonist potency from dose-response of aequorin light emission” value (FP receptor [2]) was “more potent agonists”.
